Patent publication US8940742B2, “Heterocyclic compounds and uses thereof” (Infinity Pharmaceuticals, Inc., priority 2012, dated 2015)

Amino acid sequences for entries named in this document (tags omitted). A change or cut given only in a name is not applied to a line headed by its entry.
UniProt P48736: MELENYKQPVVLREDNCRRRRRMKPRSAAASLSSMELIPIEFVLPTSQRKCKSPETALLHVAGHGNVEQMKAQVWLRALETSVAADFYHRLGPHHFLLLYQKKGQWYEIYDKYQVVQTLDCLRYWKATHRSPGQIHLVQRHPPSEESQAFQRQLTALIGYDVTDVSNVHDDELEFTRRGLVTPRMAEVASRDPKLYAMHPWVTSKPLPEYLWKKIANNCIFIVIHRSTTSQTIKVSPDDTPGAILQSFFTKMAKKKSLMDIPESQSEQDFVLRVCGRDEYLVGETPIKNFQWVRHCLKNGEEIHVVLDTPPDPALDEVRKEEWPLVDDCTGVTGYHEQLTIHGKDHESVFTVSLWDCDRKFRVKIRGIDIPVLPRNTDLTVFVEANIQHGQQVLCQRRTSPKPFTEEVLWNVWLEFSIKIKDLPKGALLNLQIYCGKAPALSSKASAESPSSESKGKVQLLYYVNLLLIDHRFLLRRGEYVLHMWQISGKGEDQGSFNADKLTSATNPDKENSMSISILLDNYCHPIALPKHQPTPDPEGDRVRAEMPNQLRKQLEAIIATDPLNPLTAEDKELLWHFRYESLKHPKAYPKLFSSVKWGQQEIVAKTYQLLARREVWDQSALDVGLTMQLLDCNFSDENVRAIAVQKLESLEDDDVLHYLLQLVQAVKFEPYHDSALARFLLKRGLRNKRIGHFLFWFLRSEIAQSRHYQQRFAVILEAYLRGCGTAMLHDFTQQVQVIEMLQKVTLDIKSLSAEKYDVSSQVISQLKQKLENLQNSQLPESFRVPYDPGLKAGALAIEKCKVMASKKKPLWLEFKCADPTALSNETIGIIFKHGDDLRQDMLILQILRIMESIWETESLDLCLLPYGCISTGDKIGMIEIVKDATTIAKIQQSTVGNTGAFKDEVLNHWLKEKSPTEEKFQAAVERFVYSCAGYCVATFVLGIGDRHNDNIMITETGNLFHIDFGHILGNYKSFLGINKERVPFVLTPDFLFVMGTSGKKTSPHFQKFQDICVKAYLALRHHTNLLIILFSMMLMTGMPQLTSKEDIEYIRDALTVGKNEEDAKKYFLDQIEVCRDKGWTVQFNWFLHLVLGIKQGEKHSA
UniProt Q9JHG7: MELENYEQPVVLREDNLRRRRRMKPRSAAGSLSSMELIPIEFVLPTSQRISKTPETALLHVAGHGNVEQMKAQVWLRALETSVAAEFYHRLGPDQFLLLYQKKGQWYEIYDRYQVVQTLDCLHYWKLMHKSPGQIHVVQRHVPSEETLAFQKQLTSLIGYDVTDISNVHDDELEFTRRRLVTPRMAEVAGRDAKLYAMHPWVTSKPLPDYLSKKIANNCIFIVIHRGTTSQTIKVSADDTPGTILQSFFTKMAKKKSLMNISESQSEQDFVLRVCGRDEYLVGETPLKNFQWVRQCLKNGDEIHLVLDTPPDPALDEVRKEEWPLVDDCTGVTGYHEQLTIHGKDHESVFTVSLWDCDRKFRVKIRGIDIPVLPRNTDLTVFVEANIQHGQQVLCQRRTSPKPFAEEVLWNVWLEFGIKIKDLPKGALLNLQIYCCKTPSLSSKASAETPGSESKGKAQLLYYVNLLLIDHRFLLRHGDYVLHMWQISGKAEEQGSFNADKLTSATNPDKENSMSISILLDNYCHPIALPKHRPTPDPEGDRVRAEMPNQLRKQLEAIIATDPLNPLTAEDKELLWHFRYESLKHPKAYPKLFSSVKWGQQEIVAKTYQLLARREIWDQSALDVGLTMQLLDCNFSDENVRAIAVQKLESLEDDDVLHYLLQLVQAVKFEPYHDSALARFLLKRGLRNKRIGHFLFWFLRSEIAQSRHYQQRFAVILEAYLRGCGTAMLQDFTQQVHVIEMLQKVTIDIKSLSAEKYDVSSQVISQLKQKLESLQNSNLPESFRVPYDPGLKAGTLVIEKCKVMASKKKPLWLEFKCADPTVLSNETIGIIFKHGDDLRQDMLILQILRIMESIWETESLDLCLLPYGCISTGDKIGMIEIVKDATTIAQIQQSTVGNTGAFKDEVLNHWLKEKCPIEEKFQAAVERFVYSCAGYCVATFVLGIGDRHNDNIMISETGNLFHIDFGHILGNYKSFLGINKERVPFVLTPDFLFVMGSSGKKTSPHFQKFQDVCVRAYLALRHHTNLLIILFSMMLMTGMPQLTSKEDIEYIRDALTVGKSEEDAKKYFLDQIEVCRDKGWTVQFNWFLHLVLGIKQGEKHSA

Tests used:
[1] = biological target: T1, PI3K γ (Homo sapiens, UniProt P48736); experiment: PI3-Kinase Promega ADP-Glo Max assay; format: biochemical
T1 construct: purchased Millipore
Description: Promega ADP-Glo Max assay kit (Cat. No. V7002) was utilized to determine IC50 values for α, β, δ and γ isoforms of human Class I PI3 kinases (Millipore). […] Reactions were incubated at room temperature for 2 hours followed by addition of 25 uL of stop solution. After a 40-minute incubation at room temperature, 50 uL of Promega detection mix was added followed by incubation for 1 hour at room temperature. Plates were then read on Envision plate reader in luminescence mode. Data was converted to % inhibition using the following equation below:
[formula] where S is the sample luminescence, Pos is a positive control without added PI3K, Neg is the negative control without added compound. Data was then plotted as % inhibition vs compound concentration.
Certain compounds provided herein were tested in PI3-Kinase Promega Assay using procedures as described above to determine IC50 values for α, β, δ and/or γ isoforms.

[2] = biological target: T2, Raw264.7 p110 γ (Mus musculus, UniProt Q9JHG7); experiment: Raw264.7 p110 γ cellular assay (phospho-AKT); format: cell-based
T2 construct: reduction of phospho-AKT in stimulated RAW 264.7 cells; endogenous in cells; host or cells: RAW264.7 macrophages
From the text: (b) PI3K-γ Selective Assay
Briefly, serum-starved PAW264.7 cells are stimulated with a known GPCR agonist C5a. […] Cells can be treated with test compounds prior to, simultaneously with, or subsequent to the stimulation by C5a. RAW 264.7 cells respond to the complement component fragment C5a through activation of the C5a receptor, and the C5a receptor activates macrophages and induces cell migration.

C[C@H](NC(=O)c1c(N)nn2cccnc12)c1cc2cccc(Cl)c2c(=O)n1-c1ccccc1 [Compound 70]
IC50 [1]: < 100 nM | IC50 [2]: < 100 nM
